The text below walks through data of article PMC3853373 (Archives of biochemistry and biophysics, 2013).

Broadly, the Ki is the dissociation constant of the complex between target and ligand, obtained from inhibition or displacement. A high value points to lower affinity. One may read the Kd as the concentration at which binding is half-saturated. The low end stands for tighter binding, the high end for weaker binding.

For test [1], the target named is T1, human PNMT (hPNMT) (Homo sapiens, UniProt P11086).
T1 sequence (P11086 1-282): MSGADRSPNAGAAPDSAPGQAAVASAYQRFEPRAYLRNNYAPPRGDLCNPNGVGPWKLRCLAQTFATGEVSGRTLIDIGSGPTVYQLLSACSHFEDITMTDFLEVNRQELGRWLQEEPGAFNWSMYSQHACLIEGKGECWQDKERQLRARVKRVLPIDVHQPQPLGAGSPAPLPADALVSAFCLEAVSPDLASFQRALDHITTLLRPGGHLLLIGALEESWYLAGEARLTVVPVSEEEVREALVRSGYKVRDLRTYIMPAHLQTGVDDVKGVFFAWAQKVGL
The test can be described thus: Determination of inhibition constants and inhibition patterns for hPNMT. The format is biochemical. The following applies: Kis, pH 8.0, 30 °C.

The target of test [2] is T1, human PNMT (hPNMT). The test can be described thus: Isothermal titration calorimetry of ligand binding to hPNMT. The following applies: Kd (varied ligand), ITC, pH 8.0. In general terms: ITC needs no label: the signal is the heat of the interaction.

Take `CNC[C@H](O)c1ccc(O)c(O)c1` [Epinephrine, epinephrine]: the Ki stood at 71 ± 9.5 µM on human PNMT (hPNMT) [1] (varied substrate AdoMet, fixed PEA 100 μM) and 20 ± 0.2 µM on human PNMT (hPNMT) [1] (varied substrate PEA, fixed AdoMet 5 μM). In addition, the dissociation constant Kd on human PNMT (hPNMT) [2] (fixed ligand AdoHcy) worked out at 4.1 ± 0.7 µM; on human PNMT (hPNMT) [2] (fixed ligand AdoMet), 23 ± 2.5 µM.
